In published antibiotic growth screens (doi:10.1038/s41589-023-01349-8):
This is one part of the list.

System: A. baumannii ATCC 17978
Test: relative growth (fraction of control); higher = less inhibition
Details: 50 µM

Row | Structure (SMILES) | relative growth
1 | Cn1c([N+](=O)[O-])cnc1COC(N)=O | 0.175
2 | C[C@H]1CNCCO1 | 1.12
3 | C=C(C)[C@H]1CC=C(C(=O)O)CC1 | 1.02
4 | Nc1cccc(/C=C/c2ccccn2)c1 | 0.881
5 | CC(C)CC#Cc1ccc2c(c1)O[C@@H](CN(C)C(=O)NC1CCCC1)[C@@H](C)CN([C@@H](C)CO)S2(=O)=O | 1.01
6 | COCC#Cc1cnc2c(c1)C(=O)N([C@H](C)CO)C[C@H](C)[C@@H](CN(C)S(=O)(=O)c1cccc(OC)c1)O2 | 1.03
7 | O=C(C1=C[C@@H](c2coc3ccccc3c2=O)C[C@@H](OCCCCO)O1)N1CCN(Cc2ccc3c(c2)OCO3)CC1 | 0.818
8 | CO[C@@H]1CN(C)C(=O)c2ccc(NC(=O)c3ccccc3)cc2OC[C@H](C)N(C(=O)CN(C)C)C[C@H]1C | 1.17
9 | Nc1nnc(N[C@H]2CCCCNC2=O)[nH]1 | 0.748
10 | CSc1nc(-c2ccccc2)cc(-c2cccs2)c1C#N | 1.11
11 | Fc1ccc(C2=NNC3=NCCN3C2)cc1F | 0.965
12 | CCc1c(C)[nH]c(N2CCOCC2)nc1=O | 0.886
13 | OC[C@H]1O[C@@](CO)(O[C@@H]2O[C@H](CO)[C@@H](O)[C@H](O)[C@H]2O)[C@@H](O[C@@H]2O[C@H](CO)[C@@H](O)[C@H](O)[C@H]2O)[C@@H]1O | 1.24
14 | Cc1ccccc1S(=O)(=O)N(C)C[C@@H]1Oc2ccc(NC(=O)Nc3cc(Cl)cc(Cl)c3)cc2CC(=O)N([C@@H](C)CO)C[C@@H]1C | 0.979
15 | CO/N=C(\C(=O)NC1C(=O)N2C(C(=O)OCOC(=O)C(C)(C)C)=C(/C=C\c3scnc3C)CSC12)c1csc(N)n1 (centres undefined) | 0.835
16 | N[C@@H](C(=O)N[C@@H]1C(=O)N2C(C(=O)O)=C(Cl)CS[C@H]12)c1ccccc1 | 0.16
17 | O=C(C[C@@H]1CC[C@@H]2[C@H](COC[C@H](O)CN2CC2CCOCC2)O1)N1CCOCC1 | 1.06
18 | COc1ccc(C(=O)NCc2ccc(OCCN(C)C)cc2)cc1OC | 1.06
19 | COc1ccccc1O[C@@H](C)C(=O)NN | 1.05
20 | O=C(CS)NCCCCCCNC(=O)[C@@H]1C[C@@H]2C(=O)N[C@@H](Cc3ccccc3)C(=O)N2[C@@H]1c1ccc(O)cc1 | 0.969
21 | O=C(C[C@H]1CC[C@@H](NC(=O)Cc2ccccn2)[C@H](CO)O1)NCCCN1CCOCC1 | 0.933
22 | CCN(CC)C(=O)C1(c2ccccc2)CC1CN.Cl (centres undefined) | 0.969
23 | COCC#Cc1ccc2c(c1)O[C@@H](CN(C)Cc1ccc(F)cc1)[C@H](C)CN([C@H](C)CO)S2(=O)=O | 0.99
24 | O=C(N[C@@H]1CC[C@@H](CCNS(=O)(=O)c2ccccc2)O[C@H]1CO)c1cnccn1 | 1.07
